# AlphaSeq binding of Ab-14 heavy chain variants to a spike HR2 peptide

Target: peptide PDVDLGDISGINAS, taken from heptad repeat 2 (HR2) of SARS-CoV-2 spike.

Ab-14 is the parent antibody, in scFv form: VH, then three GGGGS repeats, then VL. The light chain is unchanged in all variants.
VH: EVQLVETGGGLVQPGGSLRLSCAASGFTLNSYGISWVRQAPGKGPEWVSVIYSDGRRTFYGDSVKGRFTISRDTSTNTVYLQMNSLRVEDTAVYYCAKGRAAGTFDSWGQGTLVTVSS
VL: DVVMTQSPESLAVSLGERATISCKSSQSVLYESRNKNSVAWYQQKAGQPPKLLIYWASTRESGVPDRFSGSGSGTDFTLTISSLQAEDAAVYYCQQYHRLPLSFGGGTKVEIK

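The starting antibody came from a phage panning campaign against this peptide. The library (AAYL49) carries one to three amino acid substitutions per variant, with no insertions or deletions. The assay is AlphaSeq: two haploid yeast populations carry antibody and antigen on their surface. Pairs that bind mate more often; barcode pairs of the diploids are counted by sequencing. A regression on co-assayed BCL2-family reference pairs converts the normalised counts of each replicate to an apparent Kd. Each pool was mated in three replicate cultures.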

Variants are written as CDR1, CDR2 and CDR3 of the heavy chain (limits as in the source). Parent: GFTLNSYGIS, VIYSDGRRTFYGDSVK, GRAAGTFDS. Every variant below is changed at K65 of the VH (sequential numbering). Kd is apparent (estimated from mating counts) and averaged on the log scale over replicates with a signal. Smaller is tighter. "no signal" marks a missing value. The strain was present, yet no cells mated with the target were sequenced in any replicate, which points to weak or no binding. In this assay the parent's reference entry averaged 4.4 nM; its copy inside this library read 13 µM (one replicate of three).

CDR-H1,CDR-H2,CDR-H3,Kd (apparent),replicates with signal,empty controls
GFTLNSYGIS,VIASDGRRTFYGDSVV,GRAAGTFDP,no signal,0/3,2/9
GFTLNSYGIS,VINSDGRRTFAGDSVI,GRAAGTFDS,23 µM,1/3,1/9
GFTLNMYGIS,VIYSDGRRTFYGDSVM,KRAAGTFDS,no signal,0/3,0/9
GFTLNSYGIS,VIYSHGRRTFYGDSVI,GRAAGTFDS,no signal,0/3,0/9
GFTLNSYIIS,VIYSDGRRTFYKDSVL,GRAAGTFDS,87 µM,1/3,1/9
GFTLNSYGIS,VIYSDGRRTSYEDSVL,GRAAGTFDS,110 nM,3/3,1/9
GFTLNSMGIS,VIYSDGRRWFYGDSVV,GRAAGTFDS,no signal,0/3,0/9
GFTGNSYGIS,VIYSDGRRTFYGDSVM,GRAAGTFKS,2.7 µM,1/3,0/9
GFTLNSYGIS,VIYSDGRRTFYWDSVN,GRAAGTFNS,no signal,0/3,1/9
MFTLNSYGIS,VIYSDGRRTFYFDSVC,GRAAGTFDS,no signal,0/3,0/9
GFTLNSYGIS,VIYSDGRRTFYGDSVF,GRAAGTFTG,no signal,0/3,0/9
GFTLNSYGIS,VEYSDGRRTFYGDSVW,FRAAGTFDS,no signal,0/3,0/9
GFTLISYGIS,VIYSDGRRTFYGDSVA,GRSAGTFDS,380 nM,1/3,1/9
YFTLNSYGIS,VIYSDGRRTFYGDSVN,GRAHGTFDS,no signal,0/3,0/9
GFTLNSYGIS,VIWSDGRRTFYGDSVS,GRAAGTFDS,1.6 µM,1/3,2/9
GFTLNSYGIS,VIASDGRRTFYGDSVP,GRAAGTNDS,45 µM,2/3,6/9
GFPTNSYGIS,VIYSDGRRTFYGDSVM,GRAAGTFDS,2.5 mM,1/3,3/9
GFTLNSYGIS,VIYSDGRRTFYGDSVM,GRAAGTFDS,160 nM,3/3,6/9
GFTLNSYGIS,VIYSDGRRCFYGDSVM,GDAAGTFDS,45 µM,2/3,1/9
GFTLNSYGIS,VIYSNGIRTFYGDSVT,GRAAGTFDS,26 µM,1/3,0/9
IFTLNSYGIS,VIYSDGARTFYGDSVY,GRAAGTFDS,no signal,0/3,0/9
GFTLNSVGIS,VIYSDGRRTFYGDSVE,GRAAGTFDS,180 nM,3/3,1/9
GFTLNSYGIS,VIMSDGRRTFYGDSVY,GRYAGTFDS,27 µM,1/3,2/9
GFTLNSYGIH,VIHSDGRRTFYGDSVT,GRAAGTFDS,no signal,0/3,0/9
GFTLNSYIIS,VIYSDGRRTFYGDTVI,GRAAGTFDS,60 µM,1/3,3/9
EFTLNSYGIS,VVYSDGRRTFYGDSVE,GRAAGTFDS,no signal,0/3,1/9
GFTLNSYGIS,VIYSQCRRTFYGDSVR,GRAAGTFDS,51 µM,1/3,0/9
GFTLNSYGIM,VIYSDGRRTFYGDSVG,GRAAGTFFS,13 µM,1/3,2/9
GFTWISYGIS,VIYSDGRRTFYGDSVN,GRAAGTFDS,no signal,0/3,0/9
GFTLNSYGIS,VIYSDSRRTFYGDSVP,GRAAGTFDS,no signal,0/3,0/9
GFTLNSYGIS,VIYSDGRKTFYGDSVC,ARAAGTFDS,37 µM,1/3,3/9
GFTPNSYGIS,VIYSDGRRTFYGDSVA,GRAAGTFDS,800 nM,2/3,1/9
GFTLNSYGIS,KIYSDGRRTFYGSSVF,GRAAGTFDS,no signal,0/3,0/9
QFTLNSYGIS,VIYSDGRRTFYGDSVW,GPAAGTFDS,17 µM,2/3,0/9
GFTLIFYGIS,VIYSDGRRTFYGDSVM,GRAAGTFDS,no signal,0/3,1/9
GFTTNSYGIS,VIYSDGRRTFYGDSET,GRAAGTFDS,no signal,0/3,0/9
GHTLNSYGIS,VIYSDGRRTFYGDSVT,GRAAGTFDK,17 µM,2/3,0/9
GFTLDSYGIS,VIYSDGRRTFYGDSVG,GRAAGTFDS,110 nM,3/3,2/9
DFTLNSYGIS,VIYSDGRRTFYGDSVC,GRMAGTFDS,13 µM,3/3,3/9
GLTLNSYGIS,VIYSDGRRSFYGDSVY,GRAAGTFDS,3.9 µM,2/3,0/9
GFTLNSYGMS,VIYSDGRRLFYGDSVF,GRAAGTFDS,16 µM,3/3,4/9
GFTLLSYGIS,VIYSDGRRTYYGDSVC,GRAAGTFDS,740 nM,1/3,0/9
GFALNSYGIS,VIYSDGRRTFYGDSAS,GRAAGTFDS,no signal,0/3,3/9
GFTLNSYYIS,VIYSDGRRPFYGDSVE,GRAAGTFDS,17 µM,1/3,1/9
GFTLNTYGIS,VIYSDGRRTFYGDSVV,GRNAGTFDS,5.7 nM,3/3,0/9
GFTLNSYGIS,VSYSDGRRTFYGDSVR,GRAAGTFDS,no signal,0/3,1/9
GFTLNSYGIS,VIYSDGRRTFYGDSVD,GVAEGTFDS,990 nM,3/3,2/9
GFTLNSYGIS,RIYSDGRRYFYGDSVC,GRAAGTFDS,no signal,0/3,0/9
GFTLNSYGIS,VIYSDGYRTFYGDSVV,GRAAGTPDS,14 µM,3/3,0/9
GFTLNSYGIS,VIYSDYRRTFYGDSVD,GRAAGTFYS,3.2 µM,1/3,0/9
GFTLNSYGID,VIYSDGRRTFYGDSVG,GRAAGCFDS,no signal,0/3,1/9
GFTLNHYGIS,VINSDGRRTFYGDSVY,GRAAGTFDS,160 µM,1/3,2/9
GFTLNSYGIS,VIYSDGRRTFDGSSVL,GRAAGTFDS,no signal,0/3,0/9
GFTLNSYPIS,VIYSDGRREFYGDSVF,GRAAGTFDS,no signal,0/3,1/9
GFTLNSYGVS,VIYYDGRRTFYGDSVC,GRAAGTFDS,430 nM,2/3,0/9
GFTLNSYGIS,VHYSDGRRTFYGDSVI,GRAAGPFDS,no signal,0/3,2/9
GFTLNSYGGS,VIYSDGRRTFYGDSVL,GRAAGTFDE,6.2 µM,2/3,1/9
GFTLNSYGIS,VIYSDGRRTFYGDSVS,WRAAGTFHS,22 nM,3/3,4/9
GFTLNSYGIS,VIYSDGRRTFAGDSVV,GRAAGTFDS,19 µM,1/3,2/9
GTTLNSYGIS,VIYSDGRRTFWGDSVY,GRAAGTFDS,no signal,0/3,1/9
GFTLNSYGIS,VIYSDGRRTFYGDSVQ,GRAAGAFDS,830 nM,1/3,0/9
GFTLNSYGIS,VIYSDGRRTFYGDSNW,GRAAGTFDS,no signal,0/3,1/9
GFTLNSYGIS,VIYSDGRRTFYGDSVP,GRAVGTFDW,no signal,0/3,0/9
GFTLNSYGIS,VIYSCGRRTFYGDSVS,GREAGTFDS,120 µM,1/3,4/9
GFTLNSYGIS,VIYSDGRRTFYGDAVL,GEAAGTFDS,7.6 nM,3/3,1/9
GFTLNSYGIS,VIYSDGRRFFYGDKVN,GRAAGTFDS,3.5 µM,2/3,3/9
GFTLNSYGIS,VIMSDGRRTFYGDSVN,GRAAGTFDS,no signal,0/3,0/9
LFTLNSYGIS,VIYSDGRRTFYGDSVP,GRAAGTRDS,no signal,0/3,1/9
GFTLNSYGIS,VIYSDGRRKFYGDSVC,ARAAGTFDS,no signal,0/3,0/9
GFTLNSYGIS,VIYSDGRITFYGDSVM,GRAAGTFDS,no signal,0/3,1/9
GFTLNSYGIS,VIYSDGRRTFYKDSVR,GDAAGTFDS,1.9 nM,3/3,1/9
GFTLNSYGIS,VIYSDGRPTFHGDSVY,GRAAGTFDS,52 µM,1/3,0/9
GFTLFSYGIS,VIYSDGRRTFYGDSVY,KRAAGTFDS,540 nM,3/3,0/9
GFTLNSYGIS,VIYSDGRRTYYGDSVP,GRAAGTSDS,11 µM,1/3,1/9
GFTLNSYGIS,VIYSDGRRFFYGDSVD,GRAAGTFQS,2.5 µM,3/3,1/9
GFSLNSYGIS,VIYSDGRRTFYGDSVR,GRAAGTFDS,3.5 nM,3/3,0/9
GFTLNSYGIS,VMYSDGRRTFYGDSVW,GRAAGTFDS,1.0 µM,3/3,0/9

Again, the first 9 entries without any signal:

{"CDR-H1": "GFTLNSYGIS", "CDR-H2": "VIASDGRRTFYGDSVV", "CDR-H3": "GRAAGTFDP", "Kd (apparent)": "no signal", "replicates with signal": "0/3", "empty controls": "2/9"}
{"CDR-H1": "GFTLNMYGIS", "CDR-H2": "VIYSDGRRTFYGDSVM", "CDR-H3": "KRAAGTFDS", "Kd (apparent)": "no signal", "replicates with signal": "0/3", "empty controls": "0/9"}
{"CDR-H1": "GFTLNSYGIS", "CDR-H2": "VIYSHGRRTFYGDSVI", "CDR-H3": "GRAAGTFDS", "Kd (apparent)": "no signal", "replicates with signal": "0/3", "empty controls": "0/9"}
{"CDR-H1": "GFTLNSMGIS", "CDR-H2": "VIYSDGRRWFYGDSVV", "CDR-H3": "GRAAGTFDS", "Kd (apparent)": "no signal", "replicates with signal": "0/3", "empty controls": "0/9"}
{"CDR-H1": "GFTLNSYGIS", "CDR-H2": "VIYSDGRRTFYWDSVN", "CDR-H3": "GRAAGTFNS", "Kd (apparent)": "no signal", "replicates with signal": "0/3", "empty controls": "1/9"}
{"CDR-H1": "MFTLNSYGIS", "CDR-H2": "VIYSDGRRTFYFDSVC", "CDR-H3": "GRAAGTFDS", "Kd (apparent)": "no signal", "replicates with signal": "0/3", "empty controls": "0/9"}
{"CDR-H1": "GFTLNSYGIS", "CDR-H2": "VIYSDGRRTFYGDSVF", "CDR-H3": "GRAAGTFTG", "Kd (apparent)": "no signal", "replicates with signal": "0/3", "empty controls": "0/9"}
{"CDR-H1": "GFTLNSYGIS", "CDR-H2": "VEYSDGRRTFYGDSVW", "CDR-H3": "FRAAGTFDS", "Kd (apparent)": "no signal", "replicates with signal": "0/3", "empty controls": "0/9"}
{"CDR-H1": "YFTLNSYGIS", "CDR-H2": "VIYSDGRRTFYGDSVN", "CDR-H3": "GRAHGTFDS", "Kd (apparent)": "no signal", "replicates with signal": "0/3", "empty controls": "0/9"}

As a blank, each scFv also met three strains without target: over library AAYL49, 15% of these pairings were detected, typically at 11 µM and seldom below 680 nM. For each scFv, signals with the empty controls are counted beside the result.

Data: MIT Lincoln Laboratory AlphaSeq set, Engelhart et al. 2022, doi:10.1038/s41597-022-01779-4, as distributed in FLAb.